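Where inhibition never reached the appropriate level, the endpoint shown equals the highest concentration tested. Otherwise, values were interpolated linearly from a five-concentration, 48-hour dose response in 96-well plates. GI50: concentration for 50% inhibition of growth. At the TGI there is no net growth.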
What was measured:
Assay in all cases: inhibition of tumour cell growth, NCI panel, 48 h
OVCAR-5 ovarian = system: OVCAR-5 ovarian
NCI/ADR-RES ovarian = system: NCI/ADR-RES ovarian
SNB-75 CNS = system: SNB-75 CNS
IGROV1 ovarian = system: IGROV1 ovarian
NCI-H322M lung = system: NCI-H322M lung
COLO 205 colon = system: COLO 205 colon
MCF7 breast = system: MCF7 breast
M14 melanoma = system: M14 melanoma
HL-60(TB) leukemia = system: HL-60(TB) leukemia
SF-539 CNS = system: SF-539 CNS
SW-620 colon = system: SW-620 colon
HS 578T breast = system: HS 578T breast
CCRF-CEM leukemia = system: CCRF-CEM leukemia
HOP-92 NSCLC = system: HOP-92 NSCLC
CAKI-1 renal = system: CAKI-1 renal
OVCAR-3 ovarian = system: OVCAR-3 ovarian
HOP-62 NSCLC = system: HOP-62 NSCLC
SK-MEL-2 melanoma = system: SK-MEL-2 melanoma
TK-10 renal = system: TK-10 renal
KM12 colon = system: KM12 colon
MOLT-4 leukemia = system: MOLT-4 leukemia
T-47D breast = system: T-47D breast
A549 NSCLC = system: A549 NSCLC
SK-MEL-5 melanoma = system: SK-MEL-5 melanoma
SR leukemia = system: SR leukemia
ACHN renal = system: ACHN renal
UO-31 renal = system: UO-31 renal
HT29 colon = system: HT29 colon
PC-3 prostate = system: PC-3 prostate
SNB-19 CNS = system: SNB-19 CNS
K-562 leukemia = system: K-562 leukemia
LOX IMVI melanoma = system: LOX IMVI melanoma
RPMI-8226 leukemia = system: RPMI-8226 leukemia
MDA-MB-231 breast = system: MDA-MB-231 breast
HCT-116 colon = system: HCT-116 colon
SF-295 CNS = system: SF-295 CNS
NCI-H522 lung = system: NCI-H522 lung
MALME-3M melanoma = system: MALME-3M melanoma
OVCAR-4 ovarian = system: OVCAR-4 ovarian
SF-268 CNS = system: SF-268 CNS
786-0 renal = system: 786-0 renal
RXF 393 renal = system: RXF 393 renal
MDA-MB-435 = system: MDA-MB-435
EKVX NSCLC = system: EKVX NSCLC
SK-OV-3 ovarian = system: SK-OV-3 ovarian
U251 CNS = system: U251 CNS
DU-145 prostate = system: DU-145 prostate
NCI-H460 lung = system: NCI-H460 lung
UACC-257 melanoma = system: UACC-257 melanoma
MDA-N = system: MDA-N
NCI-H23 lung = system: NCI-H23 lung
OVCAR-8 ovarian = system: OVCAR-8 ovarian
HCT-15 colon = system: HCT-15 colon
A498 renal = system: A498 renal
SK-MEL-28 melanoma = system: SK-MEL-28 melanoma
SN12C renal = system: SN12C renal
UACC-62 melanoma = system: UACC-62 melanoma
BT-549 breast = system: BT-549 breast

## Cn1cnc([N+](=O)[O-])c1C[N+](C)(CCCl)CCCl
OVCAR-5 ovarian
  GI50: > 100 µM
  TGI: > 100 µM
NCI/ADR-RES ovarian
  GI50: > 100 µM
  TGI: > 100 µM
SNB-75 CNS
  GI50: 87.8 µM
  TGI: > 100 µM
IGROV1 ovarian
  GI50: > 100 µM
  TGI: > 100 µM
NCI-H322M lung
  GI50: > 100 µM
  TGI: > 100 µM
COLO 205 colon
  GI50: > 100 µM
  TGI: > 100 µM
MCF7 breast
  GI50: > 100 µM
  TGI: > 100 µM
M14 melanoma
  GI50: > 100 µM
  TGI: > 100 µM
HL-60(TB) leukemia
  GI50: > 100 µM
  TGI: > 100 µM
SF-539 CNS
  GI50: > 100 µM
  TGI: > 100 µM
SW-620 colon
  GI50: > 100 µM
  TGI: > 100 µM
HS 578T breast
  GI50: > 100 µM
  TGI: > 100 µM
CCRF-CEM leukemia
  GI50: > 100 µM
  TGI: > 100 µM
HOP-92 NSCLC
  GI50: > 100 µM
  TGI: > 100 µM
CAKI-1 renal
  GI50: 34.9 µM
  TGI: > 100 µM
OVCAR-3 ovarian
  GI50: > 100 µM
  TGI: > 100 µM
HOP-62 NSCLC
  GI50: > 100 µM
  TGI: > 100 µM
SK-MEL-2 melanoma
  GI50: > 100 µM
  TGI: > 100 µM
TK-10 renal
  GI50: > 100 µM
  TGI: > 100 µM
KM12 colon
  GI50: > 100 µM
  TGI: > 100 µM
MOLT-4 leukemia
  GI50: > 100 µM
  TGI: > 100 µM
T-47D breast
  GI50: 47.1 µM
  TGI: > 100 µM
A549 NSCLC
  GI50: > 100 µM
  TGI: > 100 µM
SK-MEL-5 melanoma
  GI50: > 100 µM
  TGI: > 100 µM
SR leukemia
  GI50: 22.6 µM
  TGI: > 100 µM
ACHN renal
  GI50: 58.1 µM
  TGI: > 100 µM
UO-31 renal
  GI50: > 100 µM
  TGI: > 100 µM
HT29 colon
  GI50: > 100 µM
  TGI: > 100 µM
PC-3 prostate
  GI50: > 100 µM
  TGI: > 100 µM
SNB-19 CNS
  GI50: > 100 µM
  TGI: > 100 µM
K-562 leukemia
  GI50: > 100 µM
  TGI: > 100 µM
LOX IMVI melanoma
  GI50: > 100 µM
  TGI: > 100 µM
RPMI-8226 leukemia
  GI50: > 100 µM
  TGI: > 100 µM
MDA-MB-231 breast
  GI50: > 100 µM
  TGI: > 100 µM
HCT-116 colon
  GI50: > 100 µM
  TGI: > 100 µM
SF-295 CNS
  GI50: > 100 µM
  TGI: > 100 µM
NCI-H522 lung
  GI50: > 100 µM
  TGI: > 100 µM
MALME-3M melanoma
  GI50: > 100 µM
  TGI: > 100 µM
OVCAR-4 ovarian
  GI50: > 100 µM
  TGI: > 100 µM
SF-268 CNS
  GI50: > 100 µM
  TGI: > 100 µM
786-0 renal
  GI50: > 100 µM
  TGI: > 100 µM
RXF 393 renal
  GI50: > 100 µM
  TGI: > 100 µM
MDA-MB-435
  GI50: > 100 µM
  TGI: > 100 µM
EKVX NSCLC
  GI50: > 100 µM
  TGI: > 100 µM
SK-OV-3 ovarian
  GI50: > 100 µM
  TGI: > 100 µM
U251 CNS
  GI50: > 100 µM
  TGI: > 100 µM
DU-145 prostate
  GI50: > 100 µM
  TGI: > 100 µM
NCI-H460 lung
  GI50: > 100 µM
  TGI: > 100 µM
UACC-257 melanoma
  GI50: > 100 µM
  TGI: > 100 µM
MDA-N
  GI50: > 100 µM
  TGI: > 100 µM
NCI-H23 lung
  GI50: > 100 µM
  TGI: > 100 µM
OVCAR-8 ovarian
  GI50: > 100 µM
  TGI: > 100 µM
HCT-15 colon
  GI50: > 100 µM
  TGI: > 100 µM
A498 renal
  GI50: > 100 µM
  TGI: > 100 µM
SK-MEL-28 melanoma
  GI50: > 100 µM
  TGI: > 100 µM
SN12C renal
  GI50: > 100 µM
  TGI: > 100 µM
UACC-62 melanoma
  GI50: > 100 µM
  TGI: > 100 µM
BT-549 breast
  GI50: > 100 µM
  TGI: > 100 µM
